Source: patent publication US20230000869A1, “NOVEL ALK2 INHIBITORS AND METHODS FOR INHIBITING BMP SIGNALING” (The Brigham and Women's Hospital, Inc., priority 2017, published 2023)

The chains behind the UniProt entries cited, without tags or fusion partners. Residues count along the entry.
UniProt P37172, 21-509 limits assumed: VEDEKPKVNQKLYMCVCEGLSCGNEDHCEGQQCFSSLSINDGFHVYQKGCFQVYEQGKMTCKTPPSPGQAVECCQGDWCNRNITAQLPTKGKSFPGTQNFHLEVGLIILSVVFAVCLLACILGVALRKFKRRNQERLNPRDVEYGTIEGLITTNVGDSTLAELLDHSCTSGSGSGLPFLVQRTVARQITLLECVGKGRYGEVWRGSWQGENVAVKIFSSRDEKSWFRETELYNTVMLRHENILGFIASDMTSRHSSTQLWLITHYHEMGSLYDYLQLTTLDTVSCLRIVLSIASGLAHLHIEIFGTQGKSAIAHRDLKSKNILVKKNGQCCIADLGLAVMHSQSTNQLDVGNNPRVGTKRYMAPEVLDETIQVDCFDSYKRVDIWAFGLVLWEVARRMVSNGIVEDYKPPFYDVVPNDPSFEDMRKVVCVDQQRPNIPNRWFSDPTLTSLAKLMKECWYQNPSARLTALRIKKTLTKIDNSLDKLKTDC

Key:
ALK2 = ALK2 (Mus musculus, UniProt P37172); test: Luciferase reporter gene assay for ALK2 activity (C2C12 BRE-Luc SMAD1/5/8 reporter, BMP6 agonist); conditions: read-out: ALK2 IC50, BMP6 50 ng/mL
TGFβ = test: Luciferase reporter gene assay for TGFβ activity (HEK293T SBE-Luc SMAD2/3 reporter, TGFβ agonist); conditions: read-out: TGFβ IC50, TGFβ 5 ng/mL

IC50 (ALK2): 35 nM
IC50 (TGFβ): 453 nM
SMILES: COc1cc2c(-c3cnn4cc(N5CCC(N(C)CCN(C)C)CC5)cnc34)ccnc2cc1F
